US20080200556A1, “Amine Compounds And Inhibiting Neurotrasmitter Reuptake” (MAYO FOUNDATION FOR MEDICAL EDUCATION AND RESEARCH, priority 2004, published 2008)

Legend:
Male Sprague-Dawley rats = test: Forced swim test in rats; assay type: in vivo, rat
From the text: When rats are placed in a cylinder of water from which they cannot escape, they will remain immobile in the water for the majority of the test. Administration of antidepressants to rats decreases the amount of time spent immobile and increases swimming activity in the chamber (Porsolt et al., Nature, 266:730-732 (1977)). This test can be used to screen compounds for potential antidepressant activity (Cryan et al., Trends Pharmacol. Sci., 23:238-245 (2002)).
Male Sprague-Dawley rats (200-250 g) were individually placed in vertical cylinders (height 40 cm, internal diameter 19 cm) containing water (25° C.) to a level of 15 cm, as described elsewhere (Porsolt et al., Nature, 266:730-732 (1977)). Water was changed between trials, and the procedure involved a pretest and a 5-minute test separated by 24 hours. During the pretest, rats (adapted to the experimental room for no less than 1 hour) were placed in the cylinder for 15 minutes. […]
A time sampling technique was used to score behavior every 5 seconds during the 5 minute test period as described elsewhere (Detke et al., Psychopharmacology (Berl), 121:66-72 (1995)). At the end of each 5-second interval, the rat's behavior was observed and scored based on the criteria described elsewhere (Porsolt et al., Nature, 266:730-732 (1977)). […] Scores for each behavior (swimming or immobility) were expressed as total counts per 5-minute session. […]

Male C57B1/6J mice = test: Tail suspension test in mice; assay type: in vivo, mouse
From the text: A tail suspension test in mice similar to that described elsewhere (Steru et al., Psychopharmacology (Berl), 85:367-370 (1985)) can corroborate the results found using the forced swim test, with possible sensitivity to a broader range of antidepressants. When mice are suspended by their tail, there is an initial period of agitation, followed by immobility. This test identifies antidepressant compounds, which decrease the duration of immobility.
Mice were then individually suspended by their tails 35 cm above the tabletop using an adhesive tape placed 1 cm from the tip of the tail. Behavior was scored every 5 seconds throughout the 6-minute test as either mobile or immobile. Mice were considered immobile only when hanging passively and completely motionless. Scores for each behavior were expressed as total counts per […]. Statistical analysis was performed using ANOVA followed by the Tukey test for post-hoc comparisons.

CN(C)CC(c1ccc2ccccc2c1)C(O)C1CCCCC1 (racemic) [PRC025, (2RS,3SR)-N,N-dimethyl-3-cyclohexyl-3-hydroxy-2-(2′-naphthyl)propylamine]
antidepressant activity in forced swim test (in words) (Male Sprague-Dawley rats; PRC025 10 mg/kg i.p., compared with imipramine 15 mg/kg): antidepressant activity that was similar to that observed in rats treated with the positive control | swimming behavior versus saline (in words) (Male Sprague-Dawley rats; i.p., imipramine 15 mg/kg, PRC025 10 mg/kg): statistically more swimming behavior than rats treated with saline | antidepressant activity in tail suspension test (in words) (Male C57B1/6J mice; PRC025 10 mg/kg i.p.): exhibited antidepressant activity | mobile behavior versus saline (in words) (Male C57B1/6J mice; i.p., PRC025 10 mg/kg, imipramine): statistically more mobile behavior than mice treated with saline
